B1: ATP-dependent DNA helicase Q5 (Homo sapiens), O94762-1 (parent)
chain: MSSHHTTFPFDPERRVRSTLKKVFGFDSFKTPLQESATMAVVKGNKDVFVCMPTGAGKSLCYQLPALLAKGITIVVSPLIALIQDQVDHLLTLKVRVSSLNSKLSAQERKELLADLEREKPQTKILYITPEMAASSSFQPTLNSLVSRHLLSYLVVDEAHCVSQWGHDFRPDYLRLGALRSRLGHAPCVALTATATPQVQEDVFAALHLKKPVAIFKTPCFRANLFYDVQFKELISDPYGNLKDFCLKALGQEADKGLSGCGIVYCRTREACEQLAIELSCRGVNAKAYHAGLKASERTLVQNDWMEEKVPVIVATISFGMGVDKANVRFVAHWNIAKSMAGYYQESGRAGRDGKPSWCRLYYSRNDRDQVSFLIRKEVAKLQEKRGNKASDKATIMAFDALVTFCEELGCRHAAIAKYFGDALPACAKGCDHCQNPTAVRRRLEALERSSSWSKTCIGPSQGNGFDPELYEGGRKGYGDFSRYDEGSGGSGDEGRDEAHKREWNLFYQKQMQLRKGKDPKIEEFVPPDENCPLKEASSRRIPRLTVKAREHCLRLLEEALSSNRQSTRTADEADLRAKAVELEHETFRNAKVANLYKASVLKKVADIHRASKDGQPYDMGGSAKSCSAQAEPPEPNEYDIPPASHVYSLKPKRVGAGFPKGSCPFQTATELMETTRIREQAPQPERGGEHEPPSRPCGLLDEDGSEPLPGPRGEVPGGSAHYGGPSPEKKAKSSSGGSSLAKGRASKKQQLLATAAHKDSQSIARFFCRRVESPALLASAPEAEGACPSCEGVQGPPMAPEKYTGEEDGAGGHSPAPPQTEECLRERPSTCPPRDQGTPEVQPTPAKDTWKGKRPRSQQENPESQPQKRPRPSAKPSVVAEVKGSVSASEQGTLNPTAQDPFQLSAPGVSLKEAANVVVKCLTPFYKEGKFASKELFKGFARHLSHLLTQKTSPGRSVKEEAQNLIRHFFHGRARCESEADWHGLCGPQR

Variants of: B1
Conditions: with rpb1_human POLR2A

Variant | effect of a mutation on the interaction
W504A;F507A | disrupting interaction strength
K598E | disrupting interaction strength
L556E | disrupting interaction strength
W504A | disrupting interaction strength
W504A;F507A;Y508A | disrupting interaction strength
K603E | disrupting interaction strength
F507A;Y508A | disrupting interaction strength
K516E | decreasing interaction strength
Y508A | disrupting interaction strength

More lines, now with the values ahead:

effect of a mutation on the interaction | Variant
disrupting interaction strength | L556E;L602E
decreasing interaction strength | H552A
disrupting interaction strength | R515E
disrupting interaction strength | L602E
disrupting interaction strength | W504A;Y508A

From IntAct's records for PubMed 23748380
